We go through one substance from KR20210021153A.

Chains of the proteins cited; added tags and fusions are not shown. Residues count along the entry.
UniProt P04141, 18-144 limits assumed: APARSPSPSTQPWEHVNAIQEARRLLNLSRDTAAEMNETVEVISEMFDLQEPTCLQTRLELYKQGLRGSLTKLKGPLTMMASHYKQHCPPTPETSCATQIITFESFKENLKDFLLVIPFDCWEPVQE

This experiment concerns the target 과립구-매크로파지 콜로니-자극 인자 (GM-CSF) (human) (UniProt P04141). As to the kind of experiment: cell-based or functional assay.

Turning to MOR103 (antibody), the 억제: TF-1 세포 증식, STAT5 포스포릴화, 다형핵 호중구 (PMN) 이동, CD11b의 PMN 상향-조절, MHC II의 단핵구 상향-조절, 호산구 생존율 (GM-CSF 1 ng/ml 이하) was found to be 0.2 µg/mL.
